Literature values, collected in US11700853B2, “Plant health compositions comprising a water-soluble pesticide and a water-insoluble agrochemical” (priority 2010, dated 2023).

Conditions: at 20° C.; cited from earlier work

CCOP(=S)(OCC)SCn1nnc2ccccc2c1=O [azinophos-ethyl]
water solubility (Solub.): 4 to 5 µg/mL
